Values of other authors, collected in PMC6832141, “Synthesis and Cyclooxygenase Inhibition of Sulfonamide-Substituted (Dihydro)Pyrrolo[3,2,1-hi]indoles and Their Potential Prodrugs” (Molecules, 2019).

System: hCOX-2
Details: read-out: IC50 hCOX-2; cited from earlier work

Cc1onc(-c2ccccc2)c1-c1ccc(S(N)(=O)=O)cc1 [valdecoxib, 4-(5-methyl-3-phenyl-4-isoxazolyl)benzenesulfonamide]
IC50: 5 nM
